The record followed here is PubChem BioAssay AID1800 (The Scripps Research Institute Molecular Screening Center, 2009).

The inhibition is the change of the read-out against control, counted positive when it falls.

The entries are a selection whose mix differs from that of the whole data set. Some tests of the compounds listed are not included; inactive here does not mean inactive elsewhere. Active and inactive are the calls of the source.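 The calls were made as follows: active = inhibition above the mean of all tested compounds plus 3 SD, set per campaign (cut at about 35% in these data); inactive = the rest.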

The subject of the assay is Hepatitis C virus NS3 helicase. In words: inhibitors of HCV NS3 helicase, primary screen, biochemical, Cy5 molecular beacon fluorescence (AID 1800).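 Also: 0% = DMSO wells and 100% = thioflavine S control wells.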 As to conditions: NS3 helicase DNA unwinding, at 10.9 µM, hits give high values. In a few lines:
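System: HCV NS3 helicase fragment; control set: DMSO and thioflavine S; technique: Cy5 fluorescence at 0 and 60 min, beacon hairpin quenching; reagent: beacon DNA duplex substrate plus ATP; replicates: singlicate; schedule: 1 h reaction at 25 °C, ATP-initiated; medium: MOPS buffer pH 6.5 with MgCl2, DTT, Tween20, BSA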
`O=C(NCC1(N2CCCCC2)CCCCC1)c1cc([N+](=O)[O-])ccc1Cl`: the inhibition was inactive: -1.41%.
As to `CN1[C@@H]2CC[C@H]1CC(OC(=O)C(O)(c1ccccc1)c1ccccc1)C2` (some centres undefined), the inhibition was inactive: 2.84%.
Regarding `CCN(CC)CC(C)C(C)OC(=O)C(O)(c1ccccc1)c1ccccc1` (centres undefined), the inhibition is inactive: 0.62%.
For `COc1cc(SC)ccc1C(=O)NCC1(N(C)C)CCCCC1`, the inhibition was inactive: 9.49%.
With `CC(C)N1C(=O)CC2(CCN(CCOC(=O)C(O)(c3ccccc3)c3ccccc3)CC2)C1=O` the figure was inactive: 2.62%; with `Cc1ccc(C(=O)NCC2(N3CCCCC3)CCCCC2)cc1`, inactive: -31.3%.
With `Cc1ccccc1C(=O)NCC1(N2CCCCC2)CCCCC1` the figure was inactive: -3%; with `CN(C)C1CCCC1OC(=O)C(O)(c1ccccc1)c1ccccc1` (centres undefined), inactive: 1.37%; with `CN(C)c1ccc(C(=O)NCC2(N(C)C)CCCCC2)cc1`, inactive: -1.83%.
In the case of `C=CCN1CCN(CCOC(=O)C(O)(c2ccccc2)c2ccccc2)CC1` it was inactive: 2.53%; in that of `O=C(NCC1(N2CCCCC2)CCCCC1)c1cc(F)c(F)cc1Cl`, inactive: -8.62%.
Turning to `COc1ccc(C(=O)NCC2(N(C)C)CCCCC2)cc1`, the inhibition was inactive: -7.17%.
In the case of `Cc1cc(C(=O)NCC2(N3CCCCC3)CCCCC2)ccc1[N+](=O)[O-]` it was inactive: -12.6%.
In the case of `CCN1CCCC(OC(=O)C2(O)c3ccccc3C=Cc3ccccc32)C1` (centres undefined), the inhibition is inactive: -14%.
With `O=C(NCC1(N2CCCCC2)CCCCC1)c1cccc(Br)c1`, the inhibition was inactive: 1.68%.
With `CN(C)C1(CNC(=O)c2ccc(Br)cc2)CCCCC1` the figure was inactive: 5.05%.
With `COc1cc(C(=O)NCC2(N(C)C)CCCCC2)c([N+](=O)[O-])cc1OC` the figure was inactive: 27.5%; with `COc1cccc(C(=O)NCC2(N3CCCCC3)CCCCC2)c1`, inactive: -10.8%; with `COc1ccc(Cl)cc1C(=O)NCC1(N(C)C)CCCCC1`, inactive: 7.24%.
As to `O=C(NCC1(N2CCCCC2)CCCCC1)c1cccc(Cl)c1`, the inhibition is inactive: 2.22%.
In the case of `O=C(OC1CN2CCC1CC2)C(CO)(c1ccccc1)c1ccccc1` (centres undefined) it was inactive: -4.35%.
Consider `COc1ccc(Br)c(C(=O)NCC2(N3CCCCC3)CCCCC2)c1`, for which the inhibition is inactive: -20.2%.
Consider `CC(C)Oc1ccc(C(=O)NCC2(N(C)C)CCCCC2)cc1`, for which the inhibition was inactive: -6.51%.
Consider `CN(C)c1cccc(C(=O)NCC2(N(C)C)CCCCC2)c1`, for which the inhibition is inactive: 2.66%.
